Laboratory results published in US8354246B2, “Non-MCCJ25-related lariat-peptide inhibitors of bacterial RNA polymerase” (priority 2006, dated 2013).

Amino acid sequences for entries named in this document (tags omitted).
UniProt Q8RQE8, whole entry: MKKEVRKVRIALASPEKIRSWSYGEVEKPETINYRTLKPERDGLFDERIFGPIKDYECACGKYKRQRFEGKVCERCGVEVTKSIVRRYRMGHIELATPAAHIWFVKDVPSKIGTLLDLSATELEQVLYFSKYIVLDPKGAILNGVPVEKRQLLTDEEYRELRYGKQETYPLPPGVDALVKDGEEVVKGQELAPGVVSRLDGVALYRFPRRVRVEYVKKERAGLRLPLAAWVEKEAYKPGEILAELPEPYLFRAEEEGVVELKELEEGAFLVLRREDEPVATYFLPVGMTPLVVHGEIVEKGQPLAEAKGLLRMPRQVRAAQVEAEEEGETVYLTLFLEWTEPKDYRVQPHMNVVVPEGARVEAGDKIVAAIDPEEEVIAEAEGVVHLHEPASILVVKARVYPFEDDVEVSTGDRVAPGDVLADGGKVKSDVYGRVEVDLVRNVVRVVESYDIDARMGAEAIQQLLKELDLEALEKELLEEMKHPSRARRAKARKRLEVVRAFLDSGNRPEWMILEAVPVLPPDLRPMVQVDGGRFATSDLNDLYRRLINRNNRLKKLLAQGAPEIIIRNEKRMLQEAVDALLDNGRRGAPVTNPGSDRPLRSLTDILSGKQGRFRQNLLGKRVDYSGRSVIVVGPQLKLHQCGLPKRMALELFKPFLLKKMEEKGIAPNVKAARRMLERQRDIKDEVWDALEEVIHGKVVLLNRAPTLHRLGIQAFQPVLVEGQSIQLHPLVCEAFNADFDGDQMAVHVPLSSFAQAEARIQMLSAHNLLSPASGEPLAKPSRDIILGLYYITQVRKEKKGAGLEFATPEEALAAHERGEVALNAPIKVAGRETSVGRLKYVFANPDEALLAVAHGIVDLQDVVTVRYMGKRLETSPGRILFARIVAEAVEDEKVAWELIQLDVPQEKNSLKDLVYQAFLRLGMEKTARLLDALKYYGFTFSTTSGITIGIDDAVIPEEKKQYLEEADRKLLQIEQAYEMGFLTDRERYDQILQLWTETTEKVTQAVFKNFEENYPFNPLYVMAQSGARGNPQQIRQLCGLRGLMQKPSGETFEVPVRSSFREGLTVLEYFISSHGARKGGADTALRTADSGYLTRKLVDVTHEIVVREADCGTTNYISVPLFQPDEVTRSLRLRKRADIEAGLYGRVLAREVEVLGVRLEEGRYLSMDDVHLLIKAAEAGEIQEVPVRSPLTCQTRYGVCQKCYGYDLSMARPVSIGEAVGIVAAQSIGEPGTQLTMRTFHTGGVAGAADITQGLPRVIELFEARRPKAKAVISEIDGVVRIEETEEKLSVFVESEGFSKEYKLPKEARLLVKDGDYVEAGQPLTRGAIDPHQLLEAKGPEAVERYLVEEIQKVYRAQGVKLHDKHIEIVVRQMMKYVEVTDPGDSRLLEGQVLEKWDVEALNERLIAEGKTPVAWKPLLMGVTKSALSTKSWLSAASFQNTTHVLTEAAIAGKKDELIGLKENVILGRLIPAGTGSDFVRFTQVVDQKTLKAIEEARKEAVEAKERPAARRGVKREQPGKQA
UniProt P0A8T7, whole entry: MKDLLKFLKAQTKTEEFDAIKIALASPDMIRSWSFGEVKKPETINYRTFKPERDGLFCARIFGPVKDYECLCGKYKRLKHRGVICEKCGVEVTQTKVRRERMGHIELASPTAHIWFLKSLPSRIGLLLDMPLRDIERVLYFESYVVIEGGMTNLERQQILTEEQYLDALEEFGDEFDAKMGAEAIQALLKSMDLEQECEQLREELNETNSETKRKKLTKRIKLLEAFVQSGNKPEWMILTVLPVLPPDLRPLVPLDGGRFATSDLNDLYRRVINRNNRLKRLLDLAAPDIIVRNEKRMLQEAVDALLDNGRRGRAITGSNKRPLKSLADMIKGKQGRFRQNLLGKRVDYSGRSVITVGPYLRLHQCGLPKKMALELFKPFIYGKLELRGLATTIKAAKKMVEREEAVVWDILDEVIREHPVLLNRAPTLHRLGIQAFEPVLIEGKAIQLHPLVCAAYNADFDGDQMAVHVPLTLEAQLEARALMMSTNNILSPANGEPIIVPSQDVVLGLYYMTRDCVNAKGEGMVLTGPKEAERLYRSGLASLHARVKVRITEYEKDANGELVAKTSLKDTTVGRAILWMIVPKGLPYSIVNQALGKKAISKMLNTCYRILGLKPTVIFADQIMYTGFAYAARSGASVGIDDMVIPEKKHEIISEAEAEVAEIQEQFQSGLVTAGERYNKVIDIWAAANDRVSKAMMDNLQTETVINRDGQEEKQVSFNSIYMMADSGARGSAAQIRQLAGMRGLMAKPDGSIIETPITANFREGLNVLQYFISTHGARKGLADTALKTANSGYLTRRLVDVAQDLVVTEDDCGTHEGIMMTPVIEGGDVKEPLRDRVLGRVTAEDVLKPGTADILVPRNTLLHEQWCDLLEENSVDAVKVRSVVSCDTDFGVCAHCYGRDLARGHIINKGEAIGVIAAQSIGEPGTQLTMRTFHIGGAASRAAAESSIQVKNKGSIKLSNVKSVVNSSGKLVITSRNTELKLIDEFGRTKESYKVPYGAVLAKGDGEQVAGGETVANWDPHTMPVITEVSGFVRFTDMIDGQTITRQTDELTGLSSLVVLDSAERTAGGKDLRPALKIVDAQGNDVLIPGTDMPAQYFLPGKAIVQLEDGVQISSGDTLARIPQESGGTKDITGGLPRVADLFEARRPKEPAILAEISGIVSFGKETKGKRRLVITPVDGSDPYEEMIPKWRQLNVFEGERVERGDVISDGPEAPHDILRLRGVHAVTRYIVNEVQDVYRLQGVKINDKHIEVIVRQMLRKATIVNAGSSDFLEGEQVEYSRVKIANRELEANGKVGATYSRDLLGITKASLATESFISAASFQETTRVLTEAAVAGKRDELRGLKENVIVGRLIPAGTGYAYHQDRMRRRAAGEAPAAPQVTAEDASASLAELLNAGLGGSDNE

Tests used:
[1] = target: T1, Thermus thermophilus σ^A RNAP holoenzyme (Thermus thermophilus, UniProt Q8RQE8); experiment: fluorescence-detected abortive initiation assay; type: biochemical; conditions: lacUV5-12 DNA fragment, 37° C.
T1 construct: made in house
Description: (§1) Following incubation of reaction mixtures for 5 min at 22° C., 1 μl 1.1 μM DNA fragment lacUV5-12 (Mukhopadhyay et al. (2001) Cell 106, 453-463) was added. Following further incubation of reaction mixtures for […] at 37° C., 0.5 μl 1 mg/ml heparin (Sigma, Inc.; omitted in experiments with T. thermophilus RNAP) and 0.5 μl of 2.75 mM (γ-AmNS)UTP (Molecular Probes, Inc.) were added, and reaction mixtures were transferred to sub-micro fluorometer cuvettes (Starna Cells, Inc.). Following further incubation of reaction mixtures for 2 min at 37° C., RNA synthesis was initiated by addition of 2 μl 11 mM ApA (Sigma, Inc.), and fluorescence emission intensity was monitored for 5 min at 37° C. [excitation wavelength=360 nm and emission wavelength=500 nm; excitation and emission slit widths=4 nm; QuantaMaster QM1 spectrofluorometer (PTI, Inc.)]. The quantity of UMP incorporated into RNA was determined from the quantity of (γ-AmNS) UTP consumed, which, in turn, was calculated as follows (Schlageck et al. 1979): (γ-AmNS)UTPconsumed=[(γ-AmNS)UTP0](Ft−F0)/(12.4×F0) where (γ-AmNS)UTP0 is the quantity of (γ-AmNS)UTP at time 0, F0 is the fluorescence emission intensity at time 0, and Ft is the fluorescence emission intensity at time t.

[2] = target: T2, Escherichia coli σ^70 RNAP holoenzyme (Escherichia coli, UniProt P0A8T7); experiment: fluorescence-detected abortive initiation assay; type: biochemical; conditions: lacUV5-12 DNA fragment, 37° C.
T2 construct: purchased Epicentre, Inc
Description: as §1

Question: With `C[C@@H]1NC(=O)[C@H]([C@@H](C)O)NC(=O)CNC(=O)[C@H](Cc2c[nH]cn2)NC(=O)[C@H](Cc2c[nH]c3ccccc23)NC(=O)[C@H](CC(N)=O)NC(=O)CNC(=O)C[C@@H](C(=O)N[C@@H](Cc2c[nH]c3ccccc23)C(=O)N[C@@H](Cc2ccccc2)C(=O)N[C@@H](Cc2ccccc2)C(=O)N[C@@H](CC(N)=O)C(=O)N[C@@H](Cc2ccc(O)cc2)C(=O)N[C@@H](Cc2ccc(O)cc2)C(=O)N[C@@H](Cc2c[nH]c3ccccc23)C(=O)O)NC(=O)[C@@H]2CCCN2C1=O` [RES-701-1] as the compound, how does the IC50 [1] read?
Answer: The IC50 was 2 to 100 µM and 20 µM.

Question: What about the IC50 [2] of the same compound?
Answer: The IC50 was 2 to 100 µM and 30 µM.

Several values for one entry are separate records, joined by “and”; a condition that tells them apart may be missing. Identical values can stand only once.
